Assay: Solubility in buffers at pH 1.0, 1.2, 4.5, 6.8 and 7.5
Conditions: for Solubility pH = 1.0 (volume of solvent required for dissolution per gram of solute): buffer pH 1.0, KCl 0.2 M / HCl 0.2 M; for Solubility pH = 1.2 (volume of solvent required for dissolution per gram of solute): buffer pH 1.2, KCl 0.2 M / HCl 0.2 M; for Solubility pH = 4.5 (volume of solvent required for dissolution per gram of solute): buffer pH 4.5, potassium biphthalate 0.2 M / HCl 0.2 M; for Solubility pH = 6.8 (volume of solvent required for dissolution per gram of solute): buffer pH 6.8, monobasic potassium phosphate 0.2 M / NaOH 0.2 M; for Solubility pH = 7.5 (volume of solvent required for dissolution per gram of solute): buffer pH 7.5, monobasic potassium phosphate 0.2 M / NaOH 0.2 M

Substance	Solubility pH = 1.0 (volume of solvent required for dissolution per gram of solute)	Solubility pH = 1.2 (volume of solvent required for dissolution per gram of solute)	Solubility pH = 4.5 (volume of solvent required for dissolution per gram of solute)	Solubility pH = 6.8 (volume of solvent required for dissolution per gram of solute)	Solubility pH = 7.5 (volume of solvent required for dissolution per gram of solute)
Demeclocycline Oxalate	10 ml/g	18 ml/g	53 ml/g	34 ml/g	77 ml/g
Demeclocycline Maleate	30 ml/g	30 ml/g	38 ml/g	77 ml/g	67 ml/g

— patent US10543298B2, “Salts of tetracyclines” (Hovione Scientia Limited, priority 2015, dated 2020)
